Test system: NCI-N87 human gastric cancer cells
Experiment: NCI-N87 subcutaneous transplanted tumor model in mouse
Format: in vivo, BALB/c nude mice
Details: 5 mg/kg, 35 days after administration
Description: NCI-N87 human gastric cancer cells were subcutaneously inoculated on the right back of female BALB/c nude mice. On the 6th day after tumor cell inoculation, the tumor-bearing mice were randomly divided into 4 groups, with 5 mice in each group. […] The diameter of tumor was measured with vernier caliper twice a week. The calculation formula of tumor volume is V=0.5a×b^2, wherein a and b represent the long and short diameters of tumor respectively. The weight of mice was measured twice a week, and the behavior, food intake, physical signs or other abnormal behaviors were observed every day.
The calculation formula of relative tumor proliferation rate T/C (%) is as follows: T/C %=TRTV/CRTV×100% (TRTV: treatment group RTV; CRTV: negative control group RTV; RTV: relative tumor volume). RTV=Vt/V0, where V0 is the average tumor volume measured at the time of group administration, Vt is the average tumor volume measured at a certain time, and TRTV and CRTV take the data on the same day. […]

## Enhertu: Commercially available comparator given at 5 mg/kg in the NCI-N87 model
  Anti-tumor effect (tumor volume) versus vehicle control: significant anti-tumor effects

Reference: patent US20260284211A1, “DISACCHARIDE LINKER, LINKER-PAYLOAD CONTAINING THE SAME AND GLYCAN CHAIN-REMODELED ANTIBODY-DRUG CONJUGATE, PREPARATION METHOD AND USES THEREOF” (GENEQUANTUM HEALTHCARE (SUZHOU) CO., LTD., priority 2023, published 2026)
